We go through 3 molecules from patent publication US20170122958A1, “Enzymes Functional Probes” (University of Dundee, priority 2013, published 2017).

Chains of the proteins cited; added tags and fusions are not shown. Residues count along the entry.
UniProt P25440, 74-180 L110A limits assumed: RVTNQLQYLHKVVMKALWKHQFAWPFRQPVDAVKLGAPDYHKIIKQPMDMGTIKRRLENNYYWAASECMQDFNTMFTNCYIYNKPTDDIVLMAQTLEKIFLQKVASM
UniProt P25440, 344-453 L383A limits assumed: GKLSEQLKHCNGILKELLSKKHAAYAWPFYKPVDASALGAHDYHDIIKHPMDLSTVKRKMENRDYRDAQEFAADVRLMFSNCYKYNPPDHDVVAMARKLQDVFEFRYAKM

Assay type in all cases: binding
One test deals with T1, Brd4(2) (Homo sapiens, UniProt O60885).
T1 construct: Plasmids of the eight single BET bromodomain constructs Brd2(1), Brd2(2), Brd3(1), Brd3(2), Brd4(1), Brd4(2), Brdt(1) and Brdt(2); His6 (N); made in house; host or cells: E. coli BL21(DE3)
In words: DSF thermal shift. The settings on record: wild type.

The target in a further test is T2, Brd4(1) (Homo sapiens, UniProt O60885).
T2 construct: Plasmids of the eight single BET bromodomain constructs Brd2(1), Brd2(2), Brd3(1), Brd3(2), Brd4(1), Brd4(2), Brdt(1) and Brdt(2); His6 (N); made in house; host or cells: E. coli BL21(DE3)
In words: DSF thermal shift. The following applies: wild type.

The target in a further test is T3, brdt(2)L306A (Homo sapiens, UniProt Q58F21, L306A).
T3 construct: Plasmids of the eight single BET bromodomain constructs Brd2(1), Brd2(2), Brd3(1), Brd3(2), Brd4(1), Brd4(2), Brdt(1) and Brdt(2); His6 (N); made in house; host or cells: E. coli BL21(DE3)
In words: DSF thermal shift. The method, then: (§1) DSF assays were performed on a LightCycler®480 from Roche or a Mx3005P Real Time PCR machine from Stratagene. […] SYPRO®Orange from Invitrogen Molecular Probes® was used as a reporter dye to monitor the denaturing process of the proteins. Samples were assayed on a 96-well plate with final protein concentrations of 2 μM for the LightCycler®480 and 6 μM for Mx3005P. Compounds were added at a final concentration of 10 μM for the LightCycler®480 and 30 μM for Mx3005P, while the tetra acetylated histone peptide was added to a final concentration of 100 μM and 300 μM respectively. […] The temperature was raised with a step of 0.6° C. per minute from 37° C. to 95° C. with the LightCycler®480 collecting 39 measurements per ° C., and 1° C. per minute from 25° C. to 95° C. with Mx3005P, collecting fluorescence readings at the end of each interval. Each sample was run in triplicates.
(§2) Collected data was analysed by IGOR Pro 6, a scientific software tool from Wave Metrics, Inc. Analysis was done following the recommendations of Niesen et al.. Fluorescence intensity was plotted as a function of temperature, generating a sigmoidal curve described by a two-state transition from folded to unfolded protein. Curves were fitted by the following sigmoidal equation: […]
(§3) A1 and A2 are the values of minimum and maximum intensities, respectively, x0 is the inflection point and dx is the rate. Fitted curves were differentiated in IGOR Pro 6 and the maximum of the first derivative was identified using the same program. These values correspond to the inflection points of the transition curves and thus to the melting temperatures of the proteins (Tm).

A further test addresses T4, Brdt(1) (Homo sapiens, UniProt Q58F21).
T4 construct: Plasmids of the eight single BET bromodomain constructs Brd2(1), Brd2(2), Brd3(1), Brd3(2), Brd4(1), Brd4(2), Brdt(1) and Brdt(2); His6 (N); made in house; host or cells: E. coli BL21(DE3)
The test is described as follows: DSF thermal shift. The following applies: wild type. The method, then:
as §1, §2, §3

The target of another test is T5, Brdt(2) (Homo sapiens, UniProt Q58F21).
T5 construct: Plasmids of the eight single BET bromodomain constructs Brd2(1), Brd2(2), Brd3(1), Brd3(2), Brd4(1), Brd4(2), Brdt(1) and Brdt(2); His6 (N); made in house; host or cells: E. coli BL21(DE3)
In words: DSF thermal shift. The following applies: wild type. The method, then:
as §1, §2, §3

For the next test, the target named is T6, brdt(1)L063A (Homo sapiens, UniProt Q58F21, L63A).
T6 construct: Plasmids of the eight single BET bromodomain constructs Brd2(1), Brd2(2), Brd3(1), Brd3(2), Brd4(1), Brd4(2), Brdt(1) and Brdt(2); His6 (N); made in house; host or cells: E. coli BL21(DE3)
The test is described as follows: DSF thermal shift.

In another test the target is Brd2(1)*(Leu110-Ala) (Homo sapiens, UniProt P25440, L110A). In words: ITC reverse titration of protein into compound. Details: Plasmids of the eight single BET bromodomain constructs Brd2(1), Brd2(2), Brd3(1), Brd3(2), Brd4(1), Brd4(2), Brdt(1) and Brdt(2); His6 (N); made in house; host or cells: E. coli BL21(DE3). The settings on record: Brd2(1)*(Leu110-Ala) vs wild type Brd2(2), ITC Kd.

The target of another test is T7, brd4(2)L387A (Homo sapiens, UniProt O60885, L387A).
T7 construct: Plasmids of the eight single BET bromodomain constructs Brd2(1), Brd2(2), Brd3(1), Brd3(2), Brd4(1), Brd4(2), Brdt(1) and Brdt(2); His6 (N); made in house; host or cells: E. coli BL21(DE3)
In words: DSF thermal shift. The settings on record: mutant.

The target in a further test is T8, brd4(1)L094A (Homo sapiens, UniProt O60885, L94A).
T8 construct: Plasmids of the eight single BET bromodomain constructs Brd2(1), Brd2(2), Brd3(1), Brd3(2), Brd4(1), Brd4(2), Brdt(1) and Brdt(2); His6 (N); made in house; host or cells: E. coli BL21(DE3)
In words: DSF thermal shift. The following applies: mutant.

In a further test the target is Brd2(2)*(Leu383-Ala) (Homo sapiens, UniProt P25440, L383A). The test is described as follows: ITC reverse titration of protein into compound. The following applies: Brd2(2)*(Leu383-Ala) vs wild type Brd2(1), ITC Kd. Set-up: Plasmids of the eight single BET bromodomain constructs Brd2(1), Brd2(2), Brd3(1), Brd3(2), Brd4(1), Brd4(2), Brdt(1) and Brdt(2); His6 (N); made in house; host or cells: E. coli BL21(DE3).

In the case of `COC(=O)[C@@H](C)[C@@H]1N=C(c2ccc(Cl)cc2)c2cc(OC)ccc2-n2c(C)nnc21` (racemic) [Compound 6, (+−)-methyl (S)-2-((S)-6-(4-chlorophenyl)-8-methoxy-1-methyl-4H-benzo[f][1,2,4]triazolo[4,3-a][1,4]diazepin-4-yl)propanoate], the “ΔTm Brd4(2)” value at Brd4(2) was found to be 0.1 ± 0.1 K. Moreover, the “ΔTm Brd4(1)” value on Brd4(1) came out at 0.0 ± 0.1 K.
Take `CCNC(=O)CC1N=C(c2ccc(Cl)cc2)c2cc(OC)ccc2-n2c(C)nnc21` (centres unmarked) [iBET, reference compound]: the “ΔTm Brdt(2) leucine to alanine mutant” value on brdt(2)L306A worked out at 3.0 °C. For the same molecule, the “ΔTm Brdt(1)” value on Brdt(1) was 7.1 ± 0.5 K. The “ΔTm Brdt(2)” value on Brdt(2) came out at 5.4 ± 0.3 K. Besides, the “ΔTm Brdt(1) leucine to alanine mutant” value on brdt(1)L063A was found to be 0.9 °C.
`COC(=O)[C@H](C)[C@@H]1N=C(c2ccc(Cl)cc2)c2cc(OC)ccc2-n2c(C)nnc21` (racemic) [Compound 7, (+−)-methyl (R)-2-((S)-6-(4-chlorophenyl)-8-methoxy-1-methyl-4H-benzo[f][1,2,4]triazolo[4,3-a][1,4]diazepin-4-yl)propanoate]: the “ΔTm Brd4(2)” value on Brd4(2) amounted to 4.7 ± 0.0 K. Further, the “Fold higher affinity / selectivity for mutant over wild type” value on Brd2(1)*(Leu110-Ala) is reported as “eighteen fold selectivity”; on Brd2(1)*(Leu110-Ala) (listed as compound 7), “eighteen fold higher”; at Brd2(2)*(Leu383-Ala), “sixty six fold selectivity”; at Brd2(2)*(Leu383-Ala) (listed as compound 7), “sixty six fold higher affinity”. Further, at Brd4(1), the “ΔTm Brd4(1)” value is given as 4.0 ± 0.4 K. Besides, on brd4(2)L387A, the “ΔTm Brd4(2)* (L387A)” value is given as 8.4 ± 0.1 K. Further, the “ΔTm Brd4(1)* (L094A)” value on brd4(1)L094A worked out at 10.7 ± 0.8 K.
